Data taken from US4486419A, “5,2',3',4',4",6"-Hexadeoxykanamycin and its 1-N-acylated derivative” (Zaidan Hojin Biseibutsu Kagaku Kenkyu Kai, priority 1982, dated 1984).
Converted amounts (≈) assume the structure as drawn.

Experiments:
[1] = test system: Bacillus cereus ATCC 10702; test: microbe, parasite or virus in culture; settings: ATCC10702, 18 h
[2] = test system: Micrococcus flavus FDA 16; test: microbe, parasite or virus in culture; settings: FDA16, 18 h

SMILES	MIC [1] [µg/mL]	MIC [2] [µg/mL]
C[C@@H]1C[C@H](N)[C@@H](O)[C@@H](O[C@@H]2C[C@H](O[C@@H]3CCC[C@@H](CN)O3)[C@@H](N)C[C@H]2NC(=O)[C@@H](O)CCN)O1 [Hexadeoxyamikacin, 1-N-[(S)-4-amino-2-hydroxybutyryl]-5,2',3',4',4",6"-hexadeoxykanamycin]	6.25 (≈ 12.8 µM)	6.25 (≈ 12.8 µM)
C[C@@H]1C[C@H](N)[C@@H](O)[C@@H](O[C@@H]2C[C@H](O[C@@H]3CCC[C@@H](CN)O3)[C@@H](N)C[C@H]2N)O1 [Hexadeoxykanamycin, 5,2',3',4',4",6"-hexadeoxykanamycin]	6.25 (≈ 16.1 µM)	12.5 (≈ 32.2 µM)
